Experimental data: patent US20220288169A1, “COMPOSITIONS AND METHODS FOR THE TREATMENT AND PREVENTION OF HYPOGLYCEMIC COMPLICATIONS” (The Board of Supervisors of Louisiana State University and …, priority 2019, published 2022)

Conditions: mean (SD)

insulin
mean serum insulin levels (male Ad-lib mice, first day of refeeding, 60 min after IP insulin (mean dose 1.9 U/kg)): 11.9 ng/mL
mean serum insulin levels (male Ad-lib mice, fourth day of refeeding, 60 min after IP insulin (mean dose 2.3 U/kg)): 11.0 ng/mL
mean serum insulin levels (male Ad-lib mice, second day of refeeding, 60 min after IP insulin (mean dose 2.0 U/kg)): 10.1 ng/mL
mean serum insulin levels (male CR mice, first day of refeeding, 60 min after IP insulin (mean dose 1.6 U/kg)): 5.9 ng/mL
mean serum insulin levels (male CR mice, fourth day of refeeding, 60 min after IP insulin (mean dose 2.0 U/kg)): 8.7 ng/mL
mean serum insulin levels (male CR mice, second day of refeeding, 60 min after IP insulin (mean dose 1.6 U/kg)): 6.6 ng/mL

Read-outs that look alike come from different tables or passages of the source.
